Values quoted from earlier work, collected in patent publication US20240165135A1, “COMPOSITIONS AND METHODS FOR THE TREATMENT OF CANCER” (The State of Israel, Ministry of Agriculture & Rural …, priority 2021, published 2024).

Amino acid sequences for entries named in this document (tags omitted).
UniProt P34972, whole entry: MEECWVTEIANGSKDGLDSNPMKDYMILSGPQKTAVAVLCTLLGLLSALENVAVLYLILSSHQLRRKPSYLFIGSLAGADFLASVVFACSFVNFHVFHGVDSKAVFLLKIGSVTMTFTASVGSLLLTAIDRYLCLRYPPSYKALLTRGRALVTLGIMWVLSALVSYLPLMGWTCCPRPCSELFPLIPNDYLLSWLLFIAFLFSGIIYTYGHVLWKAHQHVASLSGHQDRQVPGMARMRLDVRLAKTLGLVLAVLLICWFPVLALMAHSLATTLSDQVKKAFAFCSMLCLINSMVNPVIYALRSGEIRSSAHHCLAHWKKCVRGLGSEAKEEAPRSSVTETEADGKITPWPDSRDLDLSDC

Target: CB2 receptor (Homo sapiens, UniProt P34972)
Settings: from reference [46]; read-out: EC50 as IA of the CB2 receptor; cited from earlier work

Cc1c(C(=O)NN2CCCCC2)nn(-c2ccc(Cl)cc2Cl)c1-c1ccc(I)cc1 [AM251]
EC50: 650 ± 30 nM
